# Experimental data published in PubChem BioAssay AID624170 (National Center for Advancing Translational Sciences (NCATS), 2012).
# Chains of the proteins cited; added tags and fusions are not shown. Lines headed by an entry give the natural chain unless they say otherwise; changes in a name come on top.
# UniProt O94925: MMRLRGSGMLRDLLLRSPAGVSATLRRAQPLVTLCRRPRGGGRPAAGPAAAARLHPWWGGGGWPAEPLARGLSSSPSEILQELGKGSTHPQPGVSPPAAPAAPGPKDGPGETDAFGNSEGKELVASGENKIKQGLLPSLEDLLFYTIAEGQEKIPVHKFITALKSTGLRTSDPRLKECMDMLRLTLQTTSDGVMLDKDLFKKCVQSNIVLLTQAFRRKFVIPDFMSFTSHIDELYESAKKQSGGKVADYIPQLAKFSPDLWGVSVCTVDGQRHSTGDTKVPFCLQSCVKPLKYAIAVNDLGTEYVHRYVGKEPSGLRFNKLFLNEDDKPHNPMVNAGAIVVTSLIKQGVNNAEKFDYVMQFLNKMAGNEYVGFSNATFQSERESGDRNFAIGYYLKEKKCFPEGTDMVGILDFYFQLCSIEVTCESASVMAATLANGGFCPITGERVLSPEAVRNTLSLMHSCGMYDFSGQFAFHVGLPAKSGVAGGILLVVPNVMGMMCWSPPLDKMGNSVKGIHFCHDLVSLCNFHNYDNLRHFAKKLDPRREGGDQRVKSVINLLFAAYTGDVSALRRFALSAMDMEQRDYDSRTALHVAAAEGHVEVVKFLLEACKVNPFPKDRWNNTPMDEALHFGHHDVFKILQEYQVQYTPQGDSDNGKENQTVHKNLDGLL
# The list shows a part of the results, in another mix than the full data. Records with an inconclusive call do not appear. Calls of active or inactive are those of the source. Calls follow the shape of the dose curve; as a rule, active = well fitted inhibition curve with a large enough effect; inconclusive = small, poorly fitted or top-dose-only effect, or another doubt; inactive = no such curve, though single readings can be large or run the other way.
# Target: Glutaminase kidney isoform, mitochondrial (Homo sapiens) (UniProt O94925)
# Test: qHTS for Inhibitors of Glutaminase (GLS)
# Conditions: GLS enzymatic activity, qHTS titration; series mostly up to 45.5 µM; activity change, negative = inhibition: at the top concentration
# % is scaled to controls: 0 for no effect and ±100 for the full control effect.
SMILES,"activity change, negative = inhibition",Potency
CC(=O)N1C2C3N(C(C)=O)C1C1N(C(C)=O)C(C(N1C(C)=O)N3C(C)=O)N2C(C)=O,inactive: 4.88%,
O=[N+]([O-])c1cccc2n[nH]nc12,inactive: 3.06%,
O=[N+]([O-])c1cc([N+](=O)[O-])c(CCNc2ccccc2)c([N+](=O)[O-])c1,inactive: 36.6%,
CCc1nc2c(n1)c1c(non1O)c1c2no[n+]1[O-],inactive: -6.48%,
Cc1ccc(NP(=O)(Oc2ccccc2)Oc2ccccc2)nc1,inactive: 4.85%,
COc1ccc(C2=NCC(CBr)S2)cc1 (stereo not drawn),inactive: 6.29%,
CN(C)C(=O)OCCc1n(C)cc[n+]1C,inactive: 3.05%,
CC(C)c1nc(Nc2ccccc2)n(P(=O)(N(C)C)N(C)C)n1,inactive: -2.34%,
CC(C)=N/N=C(\N)N[N+](=O)[O-],inactive: -1.54%,
CC1CCN(C(=O)Oc2c(Cl)cc(Cl)c3cccnc23)CC1,inactive: 5.08%,
c1cc(-c2nn[nH]n2)ccc1-c1nn[nH]n1,inactive: -9.97%,
C[N+]1=C2C=CC=CC=C2SC12C([N+](=O)[O-])=CC([N+](=O)[O-])=C[C-]2[N+](=O)[O-] (stereo not drawn),inactive: -10.1%,
Nc1ccc([As](=O)(O)c2ccc(N)cc2)cc1,inactive: -5.4%,
CCN(/C(=N/P(=O)(N1CCOCC1)N1CCOCC1)N1CCOCC1)c1ccc(OC)cc1,inactive: 0%,
c1nnnn1CCn1cnnn1,inactive: 4.98%,
O=P(Nc1nccs1)(c1ccccc1)c1ccccc1,inactive: 49.4%,
CC(C)C(=O)NC(Sc1ccccc1)C(Cl)(Cl)Cl (stereo not drawn),inactive: -10.2%,
C[C@H]1OP(=O)(Oc2ccccc2)[C@H](O)[C@H](O)[C@H]1N=[N+]=[N-] (stereo partly drawn),inactive: -0.923%,
O=P(Nc1nc2ccccc2s1)(c1ccccc1)c1ccccc1,inactive: 5.97%,
CN(C(=O)Cc1ccccc1)[C@H]1CC[C@@]2(CCCO2)C[C@@H]1N1CCCC1,inactive: 7.23%,

SMILES,"activity change, negative = inhibition",Potency
Cc1cc([N+](=O)[O-])cc([N+](=O)[O-])c1O,inactive: 3.72% [at 99.4 µM],
COc1ccc(N)c([N+](=O)[O-])c1[N+](=O)[O-],inactive: -15.3%,
Nc1ccc(CCCCOc2ccccc2)cc1,inactive: 0.847%,
CN(C)C1(CNC(=O)c2ccc(Cl)c(S(N)(=O)=O)c2)CCCCC1,inactive: -3.84%,
O=P(Nc1ccccn1)(c1ccc(Br)cc1)c1ccc(Br)cc1,inactive: -0.77%,
C(Cc1nn[nH]n1)Cc1nn[nH]n1,inactive: 3.07%,
Nc1ccc([As](=O)(O)c2ccc([N+](=O)[O-])cc2)cc1,inactive: 0.346%,
O=C(OC1CN2CCC1CC2)c1cccc(Cl)c1 (stereo not drawn),inactive: 2.92%,
CC(=O)NC(SC(=S)N(C)C)C(Cl)(Cl)Cl (stereo not drawn),inactive: 0.0283%,
O=[N+]([O-])c1ncn(CCn2cnc([N+](=O)[O-])n2)n1,inactive: -11.9%,
O=[N+]([O-])c1ccc(O)c(/C=N/Nc2ccc([N+](=O)[O-])cc2[N+](=O)[O-])c1,inactive: -0.552%,
O=[As](O)(c1ccccc1)c1ccc(O)cc1,inactive: 0%,
O=P1(N(CCCl)CCCl)OCCC2CCCCN21 (stereo not drawn),inactive: 1.87%,
O=C(NC1CCS(=O)(=O)C1)NP(=S)(Oc1ccccc1)Oc1ccccc1 (stereo not drawn),inactive: 2.09%,
CCNC(=S)/N=C(\N)N[N+](=O)[O-],inactive: 8.71%,
Cc1ccc(NP(=O)(Oc2cccc(C)c2)Oc2cccc(C)c2)nc1,inactive: 9.69%,
c1ccc(-c2nn[nH]n2)c(-c2nn[nH]n2)c1,inactive: 3.86%,
O=c1c2cc([N+](=O)[O-])ccc2[nH]c2c([N+](=O)[O-])cc([N+](=O)[O-])cc12,inactive: 0.978%,
CN(C)C(=O)Oc1noc2ccccc12,inactive: 3.79%,
CC(NC(=O)COC(=O)C(O)(c1ccccc1)c1ccccc1)c1ccccc1 (stereo not drawn),inactive: -5.84%,

SMILES,"activity change, negative = inhibition",Potency
Cc1ccccc1OP(=O)(Nc1ccccn1)Oc1ccccc1C,inactive: -19.1%,
CC(=O)NC(SC(=S)N(CC(C)C)CC(C)C)C(Cl)(Cl)Cl (stereo not drawn),inactive: -0.916%,
Cc1ccc(OP(=O)(Nc2ccccn2)Oc2ccc(C)cc2)cc1,inactive: -11.8%,
COC(=O)c1cc2c(s1)N=C(c1ccccc1)N(C)P2(=O)N1CCOCC1 (stereo not drawn),inactive: 4.65%,
CCC(=O)N1C2C3N(C(=O)CC)C1C1N(C(=O)CC)C(C(N1C(=O)CC)N3C(=O)CC)N2C(=O)CC,inactive: 3.13%,
O=C(OC1CN2CCC1CC2)c1ccccc1 (stereo not drawn),,inactive
CCc1cc(O)c([N+](=O)[O-])c(C)c1[N+](=O)[O-],inactive: 1.19%,
CC(C)(C)C(=O)NC(Sc1ccccc1)C(Cl)(Cl)Cl (stereo not drawn),inactive: 2.02%,
CCOc1ccc(C2=NCC(CBr)S2)cc1 (stereo not drawn),inactive: 0.851%,
O=P1(Nc2nc3ccc(Cl)cc3s2)COc2ccccc2O1 (stereo not drawn),inactive: 1.86%,
CC(=O)Nc1ccc(Oc2c([N+](=O)[O-])cc([N+](=O)[O-])cc2[N+](=O)[O-])cc1,inactive: -1.75%,
CC(=O)Nc1ccc([As](=O)(O)O)c(O)c1,inactive: 30.7%,
COC(=O)C1(C)COP(=O)(NCc2ccccc2)OC1 (stereo not drawn),inactive: 0.114%,
CC(=O)c1ccc(N2CC2c2ccncc2)cc1 (stereo not drawn),inactive: -0.964%,
N#C/C(=C\c1ccc(N(CCBr)CCBr)cc1)C(N)=O,inactive: 0.491%,
C[C@H]1OP(=O)(Oc2ccccc2)C[C@@H]2O[C@@H]21 (stereo partly drawn),inactive: -7.11%,
C[C@@H]1C=CCP(=O)(Oc2ccccc2)O1 (stereo partly drawn),inactive: -4.4%,
Cc1ccccc1CN(C)C(=O)COC(=O)C(O)(c1ccccc1)c1ccccc1,inactive: 9.51%,
